# Measured values as given in publication PMC7032734, “Predicting nitroimidazole antibiotic resistance mutations in Mycobacterium tuberculosis with protein engineering” (2020).
# The chains behind the UniProt entries cited, without tags or fusion partners. Residues count along the entry.
# UniProt A0R4Y6, 1-159: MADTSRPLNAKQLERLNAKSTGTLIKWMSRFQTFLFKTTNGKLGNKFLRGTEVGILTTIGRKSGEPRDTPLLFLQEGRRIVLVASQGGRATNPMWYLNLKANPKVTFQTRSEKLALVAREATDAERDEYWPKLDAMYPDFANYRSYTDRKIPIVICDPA
# UniProt A0QU01, 1-140: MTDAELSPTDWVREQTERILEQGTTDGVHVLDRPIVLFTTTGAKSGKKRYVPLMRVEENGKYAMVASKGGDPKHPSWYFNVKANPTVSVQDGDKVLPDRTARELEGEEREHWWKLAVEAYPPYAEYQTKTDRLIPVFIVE
# What was measured:
# [1] = target: MSMEG_5998 (Mycolicibacterium smegmatis, UniProt A0R4Y6); experiment: F420H2 oxidation, absorbance at […] nm; conditions: F420H2 25 μM, 200 mM Tris-HCl pH 7.5, 0.1% Triton X-100, room temperature
# [2] = target: MSMEG_2027 (Mycolicibacterium smegmatis, UniProt A0QU01); experiment: F420H2 oxidation, absorbance at […] nm; conditions: F420H2 25 μM, 200 mM Tris-HCl pH 7.5, 0.1% Triton X-100, room temperature
smiles,measurement,setting,value
CC(C)=CCC1=C(C)C(=O)c2ccccc2C1=O,Km,[1],97.9 µM
same,Km,[2],80.7 µM
